Source: patent publication US12521444B2, “Anti-HER2 antibody-drug conjugates and uses thereof” (Fortvita Biologics Limited, priority 2021, dated 2026)

Legend:
[1] = test system: HER2; assay: EC50 (nM)
Source text: Table printed on a drawing sheet, FIG. 10
Head of the field: EC50 (nM)
First copying reader's note: EC50 of binding to SK-BR-3 cells (MFI), as printed over the plot above the table.
Where the first naming reader finds the target: patent_title: Anti-HER2 antibody-drug conjugates and uses thereof

[2] = test system: SK-BR-3; assay: In vitro cytotoxicity assay (CCK-8) in SK-BR-3; type: cell-based, human; conditions: ADCs, 120 hours
Method: (§1) Dispensed 175 μL cell suspension in 96-well plate at 1500 cells per well and incubate for 24 hours in a humidified incubator (37° C., 5% CO2). […] Added 25 μL various concentrations of compound as a […] solution into the cell culture medium (Fetal bovine serum, Invitrogen) in the plate and incubated for 120 hours in the incubator. Thawed CCK-8 on the bench top or in a 37° C. water bath, added 10 μL of CCK-8 to each well of the incubated plate (be careful not introducing air bubbles into the wells since they would interfere with the O. D. reading) and then further incubated for 1-4 hours in the incubator. Measured the absorbance at 450 nm using a SpectraMax i3× Microplate Reader and calculated the cell inhibition rate. The IC50 curves were generated along with the IC50 values by using GraphPad Prism software.

[3] = test system: JIMT-1; type: cell-based, human; conditions: ADCs, moderate Her2 expression, trastuzumab-resistant, 120 hours
Method: as §1

[4] = test system: MDA-MB-468; assay: In vitro cytotoxicity assay (CCK-8) in MDA-MB-468; type: cell-based; conditions: ADCs, Her2 negative cell line, 120 hours
Method: as §1

EC50 [1] [nM]	Substance	IC50 [2] [nM]	IC50 [3] [nM]	IC50 [4] [nM]
3.1	Trastuzumab: humanized anti-HER2 monoclonal antibody; heavy chain SEQ ID NO: 1, light chain SEQ ID NO: 2 [listing 1 of 2 here]	–	–	–
–	Trastuzumab: humanized anti-HER2 monoclonal antibody; heavy chain SEQ ID NO: 1, light chain SEQ ID NO: 2 [listing 2 of 2 here]	0.56	–	–
–	DS-8201a: the ADC trastuzumab deruxtecan (Enhertu), included for comparison	0.09	6500	> 1000
